# According to PubChem BioAssay AID1240 (Sanford-Burnham Center for Chemical Genomics, 2008):
# The chains behind the UniProt entries cited, without tags or fusion partners. Where a name states a change or a piece, a line headed by the entry shows the natural chain unless it says otherwise.
# UniProt Q9HD36: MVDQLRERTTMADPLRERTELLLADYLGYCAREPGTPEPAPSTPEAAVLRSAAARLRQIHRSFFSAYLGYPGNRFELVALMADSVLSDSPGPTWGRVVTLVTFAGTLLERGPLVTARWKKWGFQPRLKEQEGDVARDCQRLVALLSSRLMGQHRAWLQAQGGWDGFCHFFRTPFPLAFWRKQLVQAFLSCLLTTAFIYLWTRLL
# Only a part is listed here, and it is no random draw.
# Molecular target: Bcl-2-like protein 10 (Homo sapiens) (UniProt Q9HD36)
# Assay: TR3 peptide-Bcl-B binding displacers, biochemical primary FP assay, phenotype converters (AID 1240);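 note: 0% = Bcl-B with tracer peptide and DMSO and 100% = tracer peptide lacking Bcl-B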
# Settings: GST-Bcl-B / FITC-TR3 peptide fluorescence polarization; stronger effect = higher value; compound at 3.75 mg/L
row,SMILES,displacement
1,CCCCOP(=O)(OCCCC)SC,-9.9%
2,COC(=O)NC(Sc1ccc(Cl)cc1)C(Cl)Cl (stereo not given),12.4%
3,O=CNC(Sc1nc2ccccc2o1)C(Cl)(Cl)Cl (stereo not given),-4.1%
4,CCCCSP(=O)(OCC(C)C)OCC(C)C,4.4%
5,CCOC(=O)NC(Sc1nc2ccccc2o1)C(Cl)(Cl)Cl (stereo not given),-18.7%
6,Cc1cc(C)nc(SC(NC(=O)c2ccccc2)C(Cl)(Cl)Cl)n1 (stereo not given),-12%
7,Cc1ccc(SC(NC(=O)c2ccccc2)C(Cl)Cl)cc1 (stereo not given),12.4%
8,O=C(CF)NC(Sc1ccc(Cl)cc1)C(Cl)(Cl)Cl (stereo not given),4.4%
9,O=C(NC(SC1=NCCS1)C(Cl)(Cl)Cl)c1ccc(I)cc1 (stereo not given),0%
10,COC(=O)c1ccc(OP(=O)(Oc2ccc(Cl)cc2C)SCC(C)C)cc1 (stereo not given),6.3%
